Measured values as given in PubChem BioAssay AID887 (National Center for Advancing Translational Sciences (NCATS), 2007).
The list shows a part of the results, in another mix than the full data. Results filed as inconclusive are left out. Active and inactive are the calls of the source. Calls follow the shape of the dose curve; as a rule, active = well fitted inhibition curve with a large enough effect; inconclusive = small, poorly fitted or top-dose-only effect; inactive = no such curve, though single readings can be large or run the other way.

Sequences of proteins named here, by UniProt entry; tags and fusion partners are left off.
UniProt P16050, whole entry: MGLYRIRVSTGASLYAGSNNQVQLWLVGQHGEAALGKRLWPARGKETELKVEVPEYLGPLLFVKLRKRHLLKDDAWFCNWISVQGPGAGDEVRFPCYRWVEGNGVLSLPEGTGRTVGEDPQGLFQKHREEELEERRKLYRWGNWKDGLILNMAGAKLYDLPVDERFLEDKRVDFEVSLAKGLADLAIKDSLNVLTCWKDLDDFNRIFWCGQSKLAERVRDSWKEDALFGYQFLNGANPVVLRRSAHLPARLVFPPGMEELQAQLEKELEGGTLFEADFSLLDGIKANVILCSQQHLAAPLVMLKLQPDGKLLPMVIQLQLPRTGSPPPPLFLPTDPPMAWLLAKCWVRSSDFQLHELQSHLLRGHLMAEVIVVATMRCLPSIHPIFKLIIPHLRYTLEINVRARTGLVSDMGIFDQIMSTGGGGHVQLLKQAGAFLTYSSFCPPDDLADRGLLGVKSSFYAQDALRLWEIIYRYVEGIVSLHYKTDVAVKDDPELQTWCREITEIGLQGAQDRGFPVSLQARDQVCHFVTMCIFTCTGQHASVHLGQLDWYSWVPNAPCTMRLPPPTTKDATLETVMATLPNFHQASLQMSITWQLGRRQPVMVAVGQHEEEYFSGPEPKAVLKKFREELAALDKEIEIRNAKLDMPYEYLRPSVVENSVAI

These compounds were tested against Polyunsaturated fatty acid lipoxygenase ALOX15 (Homo sapiens) (UniProt P16050) (assay: qHTS Assay for Inhibitors of 15-hLO (15-human lipoxygenase)). Conditions: purified 15hLO-1, xylenol orange hydroperoxide absorbance; at 57.1 µM (top of the series) unless noted.
% is scaled to controls: 0 for no effect and ±100 for the full control effect.
Also: nearly all actives have a fitted effect of over 55% in size.

| SMILES | activity change, negative = inhibition |
| --- | --- |
| NCC[C@@H](N)CSP(=O)(O)O | inactive: 4.36% [at 11.4 µM] |
| COc1ccccc1OP(C)(=O)Nc1c(C)n(C)n(-c2ccccc2)c1=O (configuration not stated) | inactive: 7.45% |
